# Measured values as given in PubChem BioAssay AID1025 (Sanford-Burnham Center for Chemical Genomics, 2008).
# Sequences of proteins named here, by UniProt entry; tags and fusion partners are left off.
# UniProt P33261, whole entry: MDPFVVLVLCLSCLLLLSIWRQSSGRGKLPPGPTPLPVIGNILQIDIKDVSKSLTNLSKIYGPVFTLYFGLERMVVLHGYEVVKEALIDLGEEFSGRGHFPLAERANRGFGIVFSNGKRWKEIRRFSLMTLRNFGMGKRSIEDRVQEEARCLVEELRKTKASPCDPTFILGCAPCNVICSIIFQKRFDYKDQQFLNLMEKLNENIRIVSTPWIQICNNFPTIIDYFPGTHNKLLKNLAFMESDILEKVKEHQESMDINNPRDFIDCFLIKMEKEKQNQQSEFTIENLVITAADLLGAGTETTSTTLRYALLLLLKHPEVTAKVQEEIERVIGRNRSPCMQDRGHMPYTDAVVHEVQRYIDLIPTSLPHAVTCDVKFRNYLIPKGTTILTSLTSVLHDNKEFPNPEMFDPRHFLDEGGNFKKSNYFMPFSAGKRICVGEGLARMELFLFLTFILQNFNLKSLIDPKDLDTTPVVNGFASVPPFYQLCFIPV
# This is one part of the list. The source made the active and inactive calls.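 How the source made its calls: active means activation factor of at least 2 at 5 µM in the primary screen; inactive means the rest.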
# Biological target: Cytochrome P450 2C19 (Homo sapiens) (UniProt P33261)
# Test: enhancers of cytochrome P450 2C19 turnover – biochemical, luminescence, primary screen (AID 1025);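 further: 0 = wells with 2.5 mM tranylcypromine and 1 = vehicle-only wells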
# Conditions: recombinant CYP2C19, luciferin-H EGE luminescence; at 5 µM; hits give high values; 0 = fully inhibited enzyme, 1 = untreated enzyme
row,SMILES,activation factor
1,CP(=O)(Nc1ccccc1F)Oc1ccccc1 (stereo not given),inactive: 0.8
2,CP(=O)(Nc1ccccc1)Oc1ccc(F)cc1 (stereo not given),inactive: 0.8
3,CN(C)CCOC(=O)C(O)(c1ccccc1)C1CCCCC1 (stereo not given),inactive: 0.5
4,COc1ccc(OP(C)(=O)Nc2cccc(Br)c2)cc1 (stereo not given),inactive: 0.3
5,Cc1ccccc1NP(C)(=O)Nc1ccccc1C,inactive: 0.2
6,CCOP(C)(=S)SCC(=O)NC(C)(CC)C(=O)O (stereo not given),inactive: 1.1
7,CC(C)(C)c1ccc(OP(C)(=O)O)cc1,inactive: 1.1
8,COc1ccccc1OP(C)(=O)Nc1c(C)n(C)n(-c2ccccc2)c1=O (stereo not given),inactive: 1
9,CP(=O)(Oc1ccccc1)N1CCOC1=O (stereo not given),inactive: 1
10,CCN(CC)CC(O)COC(=O)C(O)(c1ccccc1)C1CCCCC1 (stereo not given),inactive: 1
11,CP(=O)(OC12CC3CC(CC(C3)C1)C2)OC12CC3CC(CC(C3)C1)C2,inactive: 1.2
12,Cc1nc2ccc3ccccc3c2o1.O=[N+]([O-])c1cc([N+](=O)[O-])c(O)c([N+](=O)[O-])c1,inactive: 1.1
13,COc1ccccc1OP(C)(=O)Nc1ccc(C)c(C)c1 (stereo not given),inactive: 0.1
14,COc1ccccc1OP(C)(=O)Nc1ccc(C)cc1C (stereo not given),inactive: 0.7
15,CP(=O)(Nc1ccccn1)Oc1ccccc1 (stereo not given),inactive: 0.9
16,CCc1ccc(OP(C)(=O)O)cc1,inactive: 1
17,Cc1c(NP(C)(=O)Oc2ccc(C(C)C)cc2)c(=O)n(-c2ccccc2)n1C (stereo not given),inactive: 0.9
18,COc1ccc(OP(C)(=O)Nc2ccccn2)cc1 (stereo not given),inactive: 0.5
19,CN(C)CCOC(=O)C(O)(c1ccccc1)C1CCCC1 (stereo not given),inactive: 0.9
20,COc1ccc(OP(C)(=O)Nc2cccc(F)c2)cc1 (stereo not given),inactive: 0
21,Cc1ccc(NP(C)(=O)Oc2ccccc2)c(C)c1 (stereo not given),inactive: 0.4
22,COc1ccccc1OP(C)(=O)Nc1ccc(C)cc1 (stereo not given),inactive: 0.2
23,CP(=S)(Nn1cnnc1)Oc1ccccc1 (stereo not given),inactive: 0.9
24,CP(=O)(Nc1ccccn1)Oc1ccc(Cl)cc1 (stereo not given),inactive: 0.6
25,CCOP(C)(=S)SCC(=O)NC(C)C(=O)O (stereo not given),inactive: 0.8
26,CP(=O)(NC(=O)Nc1ccccc1)Oc1ccccc1 (stereo not given),inactive: 1.1
27,Cc1nc2ccc3ccccc3c2s1.O=[N+]([O-])c1cc([N+](=O)[O-])c(O)c([N+](=O)[O-])c1,inactive: 0.9
28,Cc1ccc(C)c(NP(C)(=O)Oc2ccccc2)c1 (stereo not given),inactive: 0.8
29,Cc1cc(C)cc(OP(C)(=O)Nc2ccccn2)c1 (stereo not given),inactive: 0.5
30,Cc1cc(C)cc(OP(C)(=O)Nc2ccc(C)cc2C)c1 (stereo not given),inactive: 0.1
